# PubChem BioAssay AID434962 (The Scripps Research Institute Molecular Screening Center, 2010)
# Sequences of proteins named here, by UniProt entry; tags and fusion partners are left off.
# UniProt P14735, whole entry, looked up: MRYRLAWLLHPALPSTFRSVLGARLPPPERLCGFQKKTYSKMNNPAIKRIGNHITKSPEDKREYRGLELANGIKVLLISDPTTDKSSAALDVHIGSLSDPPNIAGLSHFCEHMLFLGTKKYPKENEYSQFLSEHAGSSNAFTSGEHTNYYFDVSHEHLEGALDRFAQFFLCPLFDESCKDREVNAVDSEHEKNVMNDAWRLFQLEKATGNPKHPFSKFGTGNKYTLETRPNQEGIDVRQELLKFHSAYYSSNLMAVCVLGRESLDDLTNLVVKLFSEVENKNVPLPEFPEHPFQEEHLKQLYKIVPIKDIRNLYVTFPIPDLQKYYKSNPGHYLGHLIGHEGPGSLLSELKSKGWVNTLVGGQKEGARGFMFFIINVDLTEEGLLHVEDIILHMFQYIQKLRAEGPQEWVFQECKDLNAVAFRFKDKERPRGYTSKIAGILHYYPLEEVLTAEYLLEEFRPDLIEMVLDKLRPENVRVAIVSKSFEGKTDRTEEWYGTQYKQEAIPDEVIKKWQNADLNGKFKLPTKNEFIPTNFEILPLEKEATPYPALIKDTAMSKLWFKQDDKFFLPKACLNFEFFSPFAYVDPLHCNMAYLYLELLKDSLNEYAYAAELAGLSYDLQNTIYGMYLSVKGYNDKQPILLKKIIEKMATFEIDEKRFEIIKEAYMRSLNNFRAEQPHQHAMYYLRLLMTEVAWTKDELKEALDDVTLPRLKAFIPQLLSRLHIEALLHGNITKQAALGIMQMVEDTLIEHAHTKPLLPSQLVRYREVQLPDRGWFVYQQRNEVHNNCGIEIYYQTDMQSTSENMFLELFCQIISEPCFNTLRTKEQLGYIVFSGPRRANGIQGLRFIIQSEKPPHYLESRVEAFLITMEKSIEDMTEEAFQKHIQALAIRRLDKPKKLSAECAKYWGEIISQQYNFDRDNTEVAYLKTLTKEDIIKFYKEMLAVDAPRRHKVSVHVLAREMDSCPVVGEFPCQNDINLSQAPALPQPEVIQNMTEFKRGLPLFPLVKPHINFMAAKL
# Only a part is listed here, and it is no random draw. Activity calls are given as the source filed them.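 The calls were made as follows: active = percent inhibition above the average of all tested compounds plus 3 SD, set per screening campaign (cut at about 16% in these data); inactive = the rest.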
# Target: Insulin-degrading enzyme (Homo sapiens) (UniProt P14735)
# Experiment: human IDE inhibitors in live cells, primary screen, fluorescence polarization, HEK cells, FAbetaB substrate (AID 434962);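 also: IDE supplied by intact live HEK cells; FP after avidin binding of uncleaved biotin substrate so inhibition keeps polarization high; 0% = DMSO wells and 100% = 60 µM reference IDE inhibitor Ii1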
# Conditions: FAbetaB cleavage, at 5.59 µM, hits give high values
row,Compound,inhibition
1,CN1CCCC(OC(=O)C(c2ccccc2)c2ccccc2)C1 (stereo not given),inactive: -0.58%
2,O=[N+]([O-])c1cc([N+](=O)[O-])c(CCN2CCOCC2)c([N+](=O)[O-])c1,inactive: -8.79%
3,CCN(N=Nc1nonc1N)c1nonc1N,inactive: 5.19%
4,O=C(O)c1ccccc1[As](=O)(O)O,inactive: 7.09%
5,CC(=O)Nc1ccc([As](=O)(O)O)cc1,inactive: 6.11%
6,O=P(Nc1nc2ccc(Cl)cc2s1)(c1ccccc1)c1ccccc1,inactive: -2.4%
7,Cc1ccc(NP(=O)(Oc2ccccc2F)Oc2ccccc2F)nc1,inactive: 1.55%
8,CN(C(=O)Cc1ccc(Cl)c(Cl)c1)[C@H]1CCCC[C@@H]1N1CCCC1,inactive: 4.36%
9,CCOP(=O)(Nc1ccccc1)OCC,inactive: 1.68%
10,Cc1cc(SC(NC(=O)c2ccc(F)cc2)C(Cl)(Cl)Cl)ncn1 (stereo not given),inactive: 0.65%
11,Cc1ccc(OP(=O)(Nc2ccccn2)Oc2ccc(C)cc2)cc1,inactive: -2.21%
12,CC(=O)NC(SC(=S)N(CC(C)C)CC(C)C)C(Cl)(Cl)Cl (stereo not given),inactive: -6.46%
13,COC(=O)c1cc2c(s1)N=C(c1ccccc1)N(C)P2(=O)N1CCOCC1 (stereo not given),inactive: 10.6%
14,CCC(=O)N1C2C3N(C(=O)CC)C1C1N(C(=O)CC)C(C(N1C(=O)CC)N3C(=O)CC)N2C(=O)CC,inactive: -6.92%
15,O=C(OC1CN2CCC1CC2)c1ccccc1 (stereo not given),inactive: -0.54%
16,CN(C)C(=O)Oc1noc2ccccc12,inactive: 1.01%
17,Cc1ccccc1OP(=O)(Nc1ccccn1)Oc1ccccc1C,inactive: 3.61%
18,CC(NC(=O)COC(=O)C(O)(c1ccccc1)c1ccccc1)c1ccccc1 (stereo not given),inactive: 1.91%
19,CCNC(=S)/N=C(\N)N[N+](=O)[O-],inactive: 2.21%
20,O=C(NC1CCS(=O)(=O)C1)NP(=S)(Oc1ccccc1)Oc1ccccc1 (stereo not given),inactive: 1.29%
21,CCOC(=O)NC(Sc1ccccc1)C(Cl)(Cl)Cl (stereo not given),inactive: 9.67%
22,Cc1ccc(NP(=O)(Oc2cccc(C)c2)Oc2cccc(C)c2)nc1,inactive: -2.35%
23,c1ccc(-c2nn[nH]n2)c(-c2nn[nH]n2)c1,inactive: -2.26%
24,CC(=O)c1ccc(N2CC2c2ccncc2)cc1 (stereo not given),inactive: 3.49%

row,Compound,inhibition
1,C[C@@H]1C=CCP(=O)(Oc2ccccc2)O1 (stereo not given in full),inactive: 1.03%
2,C[C@H]1OP(=O)(Oc2ccccc2)C[C@@H]2O[C@@H]21 (stereo not given in full),inactive: 5.92%
3,Cc1ccccc1CN(C)C(=O)COC(=O)C(O)(c1ccccc1)c1ccccc1,inactive: -4.25%
4,CC(=O)Nc1ccc(Oc2c([N+](=O)[O-])cc([N+](=O)[O-])cc2[N+](=O)[O-])cc1,inactive: 2.95%
5,CC(=O)Nc1ccc([As](=O)(O)O)c(O)c1,inactive: 4.14%
6,CCOc1ccc(C2=NCC(CBr)S2)cc1 (stereo not given),inactive: 0.98%
7,O=P1(Nc2nc3ccc(Cl)cc3s2)COc2ccccc2O1 (stereo not given),inactive: -1.96%
8,CC(C)(C)C(=O)NC(Sc1ccccc1)C(Cl)(Cl)Cl (stereo not given),inactive: 12%
9,CC(C)C(=O)NC(Sc1ccccc1)C(Cl)(Cl)Cl (stereo not given),inactive: 4.07%
10,O=P(Nc1nccs1)(c1ccccc1)c1ccccc1,inactive: 3.23%
11,c1nnnn1CCn1cnnn1,inactive: 0.16%
12,O=[N+]([O-])c1ccc(O)c(/C=N/Nc2ccc([N+](=O)[O-])cc2[N+](=O)[O-])c1,inactive: 2.71%
13,O=[N+]([O-])c1ncn(CCn2cnc([N+](=O)[O-])n2)n1,inactive: -1.83%
14,CC(=O)NC(SC(=S)N(C)C)C(Cl)(Cl)Cl (stereo not given),inactive: -1.17%
15,O=[As](O)(c1ccccc1)c1ccc(O)cc1,inactive: -3.4%
16,Nc1ccc([As](=O)(O)c2ccc([N+](=O)[O-])cc2)cc1,inactive: -2.54%
17,C(Cc1nn[nH]n1)Cc1nn[nH]n1,inactive: -0.91%
18,O=C(OC1CN2CCC1CC2)c1cccc(Cl)c1 (stereo not given),inactive: 1.21%
19,O=P(Nc1ccccn1)(c1ccc(Br)cc1)c1ccc(Br)cc1,inactive: -0.16%
20,CN(C)C1(CNC(=O)c2ccc(Cl)c(S(N)(=O)=O)c2)CCCCC1,inactive: 4.83%
21,C[C@H]1OP(=O)(Oc2ccccc2)[C@H](O)[C@H](O)[C@H]1N=[N+]=[N-] (stereo not given in full),inactive: -0.46%
22,O=P(Nc1nc2ccccc2s1)(c1ccccc1)c1ccccc1,inactive: 0.19%
23,O=P1(Nc2ncccn2)COc2ccccc2OC1,inactive: 0.05%
24,O=P1(Nc2ccc(Br)cn2)COc2ccccc2OC1,inactive: 7.61%

row,Compound,inhibition
1,NS(=O)(=O)c1cccc(NC(=O)COC(=O)C(O)(c2ccccc2)c2ccccc2)c1,inactive: -0.83%
2,O=[As](O)(c1cccs1)c1cccs1,inactive: -1.73%
3,Cc1ccc(OCC(=O)OC2CN3CCC2CC3)cc1 (stereo not given),inactive: 6.66%
4,Nc1cccc([As](=O)(O)c2ccccc2)c1,inactive: 2.02%
5,CC1CCC(C(C)C)C(OP(=O)(Nc2ccccn2)c2ccccc2)C1 (stereo not given),inactive: 1.71%
6,Cc1ccc(C(=O)OC2CN3CCC2CC3)cc1 (stereo not given),inactive: 1.09%
7,Cc1nn(-c2ccccc2)c2c1P(=O)(N1CCOCC1)N(C)C(c1ccccc1)=N2 (stereo not given),inactive: 5.49%
8,O=C(/C=C/c1ccccc1)OC1CN2CCC1CC2 (stereo not given),inactive: 6.03%
9,CN(C)C1(CNC(=O)c2ccc(S(C)(=O)=O)cc2)CCCCC1,inactive: -0.45%
10,COc1ccccc1CNC(=O)COC(=O)C(O)(c1ccccc1)c1ccccc1,inactive: -1.11%
11,CC1(CBr)Cn2c(nc3ccccc3c2=O)S1 (stereo not given),inactive: 2.87%
12,O=[As](O)(c1ccccc1Br)c1ccccc1Br,inactive: 3.62%
13,CC(C)/C=N\N=C(\N)N[N+](=O)[O-],inactive: 7.1%
14,CN(C(=O)Cc1ccc(Cl)c(Cl)c1)[C@@H]1CCCC[C@H]1N1CCCC1,inactive: 2.64%
15,CN(CCCl)Cc1cc(Cl)c(NC2=NCCN2)c(Cl)c1,inactive: 1.47%
16,CCOP(=O)(Nc1ccc(C)cn1)OCC,inactive: 4.86%
17,CCOP(=O)(NC(=NC(C)c1ccccc1)NC(C)c1ccccc1)OCC (stereo not given),inactive: 7.2%
18,O=P1(Nc2ccccn2)COc2ccccc2OC1,inactive: 3.83%
19,CCC1=CC2Cc3nc4ccc(Cl)cc4c(N)c3C(C1)C2 (stereo not given),inactive: -2.31%
20,CC(C)(C)C(=O)NC(Sc1ncccn1)C(Cl)(Cl)Cl (stereo not given),inactive: 4.82%
21,Clc1n[nH]nc1-c1nn[nH][15n]1,inactive: 1.68%
22,CCCOP(=S)(Nc1nc(N)cc(=O)[nH]1)OCCC,inactive: 1.46%
23,Nc1cccc2c([As](=O)(O)O)cccc12,inactive: -1.87%
24,Cc1ccc(NCCc2c([N+](=O)[O-])cc([N+](=O)[O-])cc2[N+](=O)[O-])cc1,inactive: 4.33%

row,Compound,inhibition
1,CCOP(=O)(Nc1cccc2ccccc12)OCC,inactive: 1.69%
2,COc1cc(C2NCCC3(OCCO3)C2(C)C)cc(OC)c1OC (stereo not given),inactive: 5.03%
3,CS(=O)(=O)c1ccc(Cl)c(NC(=O)COC(=O)C(O)(c2ccccc2)c2ccccc2)c1,inactive: 0.12%
4,COc1cc(C(=O)NCC2(N3CCOCC3)CCCCC2)cc(Cl)c1OC(C)C,inactive: 5.31%
5,O=[As](O)(O)c1cccnc1,inactive: 2.98%
6,O=C(OC1CN2CCC1CC2)c1ccc(Cl)cc1 (stereo not given),inactive: -3.24%
7,O=[As](O)(c1cccc(O)c1)c1cccc(O)c1,inactive: -6.37%
8,Cc1cccc(OCC(=O)OC2CN3CCC2CC3)c1 (stereo not given),inactive: 3.17%
9,NC(=O)Nc1ccc([As](=O)(O)O)cc1,inactive: -1.82%
10,CN(C(=O)Cc1ccc(Cl)c(Cl)c1)[C@H]1CC[C@@]2(CCCO2)C[C@@H]1N1CCCC1,inactive: -0.15%
11,CN(C)C(=O)c1cc([N+](=O)[O-])cc2c1-c1c(cc([N+](=O)[O-])cc1[N+](=O)[O-])C2=O,inactive: 6.55%
12,O=[N+]([O-])c1ccc2c(c1)nnn2O,inactive: -2.2%
13,CCOP1(=S)c2c(C)nn(CCC#N)c2N=C(c2ccc(F)cc2)N1C (stereo not given),inactive: 0.47%
14,CN(C(=O)Cc1ccccc1)[C@@H]1CC[C@]2(CCCO2)C[C@H]1N1CCCC1,inactive: 9.8%
15,N#CCCN(C(=O)COC(=O)C(O)(c1ccccc1)c1ccccc1)c1ccc(F)cc1,inactive: -0.05%
16,CS(=O)(=O)c1cc([N+](=O)[O-])c2no[n+]([O-])c2c1,inactive: -2.75%
17,O=P(Nc1nccs1)(c1ccccc1)c1nc2ccccc2s1 (stereo not given),inactive: 12.7%
18,O=P(Nc1nccs1)(Oc1ccccc1)Oc1ccccc1,inactive: -1.94%
19,CCOP1(=S)c2c(C)nn(CCC#N)c2N=C(c2ccccc2F)N1C (stereo not given),inactive: -3.15%
20,Nc1ccccc1[As](=O)(O)c1ccccc1,inactive: -0.87%
21,O=C(O)COc1ccc([As](=O)(O)O)cc1[N+](=O)[O-],inactive: 4.01%
22,CC(C)c1ccc(OP(=O)(Nc2ccccn2)Oc2ccccc2F)cc1 (stereo not given),inactive: 4.78%
23,ClCCSc1nnc(-c2cccnc2)o1,inactive: 0.5%
24,O=[N+]([O-])c1cc([N+](=O)[O-])c(-c2ccn[nH]2)s1,inactive: 6.17%

row,Compound,inhibition
1,CCN(CC)C(=S)SC(NC=O)C(Cl)(Cl)Cl (stereo not given),inactive: 0.52%
2,CC(C)NC(=O)NP(=O)(Oc1ccccc1)Oc1ccccc1,inactive: 1.39%
3,COc1cc(C(=O)NCC2(N3CCOCC3)CCCCC2)ccc1OCC(C)C,inactive: 1.12%
4,C[As](=O)(O)c1cccc(C(=O)O)c1,inactive: 3.35%
5,O=[As](O)(c1ccc(O)cc1)c1ccccc1O,inactive: -0.13%
6,Cc1ccc2nc3c(c(C)c2c1)CC(C(Cl)Cl)S3 (stereo not given),inactive: 5.19%
7,Cc1ccc(OP(=O)(Nc2ccc([N+](=O)[O-])cn2)Oc2ccc(C)cc2)cc1,inactive: -0.36%
8,COc1ccc(N/C(=N/P(=O)(N2CCOCC2)N2CCOCC2)N2CCOCC2)cc1,inactive: -2.61%
9,Cc1cc(=O)[nH]c(N[N+](=O)[O-])n1,inactive: -2.94%
10,O=C(OC1CN2CCC1CC2)C12CC3CC(CC(C3)C1)C2 (stereo not given),inactive: 2.03%
11,Cc1c2c(nc3ccccc13)SC(C(Cl)Cl)C2 (stereo not given),inactive: -2.42%
12,COc1cc(I)ccc1[As](=O)(O)O,inactive: 5.05%
13,COc1ccc2nc(NP(=O)(c3ccccc3)c3ccccc3)sc2c1,inactive: 2.66%
14,CCOC(=O)c1ccc(NC(=O)C(C)(CCl)SC)cc1 (stereo not given),inactive: -1.01%
15,O=C(OC1CN2CCC1CC2)c1cccc([N+](=O)[O-])c1 (stereo not given),inactive: 3.42%
16,CCC(C)N(CC(C)C)C(=S)SC(NC(C)=O)C(Cl)(Cl)Cl (stereo not given),inactive: -1.84%
17,COP1(=S)c2c(C)nn(CCC#N)c2N=C(c2ccc(F)cc2)N1C (stereo not given),inactive: 3.37%
18,O=C(Nc1ccncc1[N+](=O)[O-])c1ccc([N+](=O)[O-])cc1[N+](=O)[O-],inactive: -0.03%
19,O=C(COc1ccccc1)OC1CN2CCC1CC2 (stereo not given),inactive: 2.15%
20,CCOC(=O)Nc1cccc([As](=O)(O)O)c1,inactive: -1.87%
21,O=P(Nc1ccccn1)(c1cccc2ccccc12)c1cccc2ccccc12,inactive: -2.35%
22,Cc1cc(SC(NC=O)C(Cl)(Cl)Cl)ncn1 (stereo not given),inactive: 2.42%
23,CCOC(=O)Nc1ccc([As](=O)(O)O)c(O)c1,inactive: -5.87%
24,Cc1cc(SC(NC(=O)c2ccccc2)C(Cl)(Cl)Cl)nc(C(C)C)n1 (stereo not given),inactive: -2.58%
